In patent US6833443B1, “Gymnemic acid derivatives, process for the preparation thereof and use thereof as medicine” (Guilin Jiqi Pharmaceutical Co., Ltd., priority 1999, dated 2004):

Test system: hyperlipidemia rats
Assay: Effect of compound B on TG and cholesterol in serum of hyperlipidemia rats
Type: in vivo, rat
Details: dose 100 mg/kg
Method: The effect of compound B on the contents of TG, cholesterol in the serum of hypertipidemia rats.
Male SD rats with a weight of 130-170 g, normal group, was given common food. Other groups were given food having high lipid content (1%cholesterol, 10%lard, 0.3% cholic acid, 0.2% methylthio imidazole and 88.5% common forage, made into a block.). For 14 sequential days, rats fasted for 12 hours were measured by reagent box method to obtain the contents of TG and cholesterol in serum. Then they were divided according to the value of blood fat content into different group. The experimental group was given 50, 100. 200 mg/kg compound B, the positive-control group was given clofibrate 100 mg/kg, and the control group was given water. The given medicine volume was 10 ml/kg, for 10 days, each group was still given high fat forage for 5 days before being given medicine, and common forage was given in the later 5 days. The rats were fasted for 11 hours before being given the final administration and blood of each rat was extracted to obtain the content of TG and cholesterol in serum 1 hour after being given medicine.

## CCOC(=O)C(C)(C)Oc1ccc(Cl)cc1 [clofibrate]
10 days
  TG, after administration: 2.72 ± 0.74 mmol/L
  Total cholesterol, after administration: 2.15 ± 0.76 mmol/L
baseline
  TG, before administration: 2.51 ± 0.77 mmol/L
  Total cholesterol, before administration: 4.33 ± 0.51 mmol/L
